Earlier results, collected in article PMC8356907 (Current analytical chemistry, 2021).

Biological target: T1, recombinant human caspase 3 (Homo sapiens, UniProt P42574)
T1 sequence (P42574 29-175 limits assumed): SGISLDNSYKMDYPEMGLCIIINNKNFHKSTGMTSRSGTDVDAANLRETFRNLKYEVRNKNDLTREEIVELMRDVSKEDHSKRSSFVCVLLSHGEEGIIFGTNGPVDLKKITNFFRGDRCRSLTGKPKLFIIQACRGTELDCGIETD
T1 sequence (P42574 176-277 limits assumed): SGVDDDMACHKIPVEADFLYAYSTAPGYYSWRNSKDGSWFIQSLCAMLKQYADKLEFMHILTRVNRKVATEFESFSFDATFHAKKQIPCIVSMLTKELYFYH
Details: read-out: Ki of Ac-DEVD-CHO for caspase 3; mean literature value; cited from earlier work

Ac-DEVD-CHO
Ki: 0.23 nM
